PubChem BioAssay AID2237 (Johns Hopkins Ion Channel Center, 2010)
Only a part is listed here, and it is no random draw. Active and inactive are the calls of the source.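 Rule for the calls: active = B-score above 5 SD of library B-scores, and initial fluorescence ratio not above library mean plus 5 SD; inactive = the rest.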

Protein sequences, listed by entry. Tags and fused reporters are not part of them.
UniProt Q9QUQ5, whole entry: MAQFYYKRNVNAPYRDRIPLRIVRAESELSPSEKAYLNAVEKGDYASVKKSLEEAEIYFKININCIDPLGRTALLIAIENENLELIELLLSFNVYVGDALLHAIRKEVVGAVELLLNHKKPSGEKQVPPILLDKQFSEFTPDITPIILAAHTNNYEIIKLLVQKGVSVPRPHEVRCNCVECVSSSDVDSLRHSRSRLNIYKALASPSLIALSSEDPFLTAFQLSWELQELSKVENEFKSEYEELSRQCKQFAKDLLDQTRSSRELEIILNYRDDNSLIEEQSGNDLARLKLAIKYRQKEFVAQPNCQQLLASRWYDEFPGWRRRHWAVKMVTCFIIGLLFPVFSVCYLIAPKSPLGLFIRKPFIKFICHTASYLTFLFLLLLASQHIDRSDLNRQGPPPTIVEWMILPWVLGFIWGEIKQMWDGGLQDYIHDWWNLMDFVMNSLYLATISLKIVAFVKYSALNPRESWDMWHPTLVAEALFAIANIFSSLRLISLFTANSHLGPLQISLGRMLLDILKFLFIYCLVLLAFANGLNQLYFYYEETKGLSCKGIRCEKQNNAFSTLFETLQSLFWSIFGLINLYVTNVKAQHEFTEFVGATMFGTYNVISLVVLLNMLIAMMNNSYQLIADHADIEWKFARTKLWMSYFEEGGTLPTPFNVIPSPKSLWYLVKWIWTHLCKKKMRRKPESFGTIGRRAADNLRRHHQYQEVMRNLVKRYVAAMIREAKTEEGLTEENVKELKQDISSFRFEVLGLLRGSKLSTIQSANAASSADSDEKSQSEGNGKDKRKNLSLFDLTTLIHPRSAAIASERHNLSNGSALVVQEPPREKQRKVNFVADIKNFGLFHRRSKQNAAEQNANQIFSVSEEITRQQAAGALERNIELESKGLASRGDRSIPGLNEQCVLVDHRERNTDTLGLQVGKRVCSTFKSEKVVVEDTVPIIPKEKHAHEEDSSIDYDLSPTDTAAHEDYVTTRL

Molecular target: Short transient receptor potential channel 4 (Mus musculus) (UniProt Q9QUQ5)
Test: activators of mouse TRPC4 channel, primary screen, Fluo4 calcium, HEK293 TRPC4beta/mu-opioid cells (AID 2237);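 for B-score: positive B-score marks a calcium rise read as TRPC4 activation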
Settings: Fluo4 calcium fluorescence, at 10 µM; hits give high values

| SMILES | outcome | B-score |
| --- | --- | --- |
| CC(C)(C)C(=O)NC(Sc1ncccn1)C(Cl)(Cl)Cl (stereo not given) | inactive |  |
| Clc1n[nH]nc1-c1nn[nH][15n]1 | inactive |  |
| O=[N+]([O-])c1cc([N+](=O)[O-])c(-n2nnc3ccccc32)c([N+](=O)[O-])c1 | inactive |  |
| CCOP(=O)(NC(=NC(C)c1ccccc1)NC(C)c1ccccc1)OCC (stereo not given) | inactive |  |
| O=P1(Nc2ccccn2)COc2ccccc2OC1 | inactive |  |
| CCC1=CC2Cc3nc4ccc(Cl)cc4c(N)c3C(C1)C2 (stereo not given) | inactive |  |
| CCOP(=O)(Nc1ccc(C)cn1)OCC | inactive |  |
| CN(CCCl)Cc1cc(Cl)c(NC2=NCCN2)c(Cl)c1 | inactive |  |
| CC(C)/C=N\N=C(\N)N[N+](=O)[O-] | inactive |  |
| CN(C(=O)Cc1ccc(Cl)c(Cl)c1)[C@@H]1CCCC[C@H]1N1CCCC1 | inactive |  |
| CC1(CBr)Cn2c(nc3ccccc3c2=O)S1 (stereo not given) | inactive |  |
| O=[As](O)(c1ccccc1Br)c1ccccc1Br | inactive |  |
| O=[N+]([O-])c1cc([N+](=O)[O-])c(-c2cnn(-c3ccccc3)c2)c([N+](=O)[O-])c1 | inactive |  |
| COc1ccccc1CNC(=O)COC(=O)C(O)(c1ccccc1)c1ccccc1 | inactive |  |
| CCOC(=O)C(CC)C1=NC(C)(C)Cc2ccccc21.O=[N+]([O-])c1cc([N+](=O)[O-])c(O)c([N+](=O)[O-])c1 (stereo not given) | inactive |  |
| O=[N+]([O-])c1cc([N+](=O)[O-])c(Nc2nnnn2CCO)c([N+](=O)[O-])c1 | inactive |  |
| O=C(/C=C/c1ccccc1)OC1CN2CCC1CC2 (stereo not given) | inactive |  |
| CC1CCC(C(C)C)C(OP(=O)(Nc2ccccn2)c2ccccc2)C1 (stereo not given) | inactive |  |
| Cc1ccc(C(=O)OC2CN3CCC2CC3)cc1 (stereo not given) | inactive |  |
| Cc1nn(-c2ccccc2)c2c1P(=O)(N1CCOCC1)N(C)C(c1ccccc1)=N2 (stereo not given) | inactive |  |
| COc1cc(C2NCCC3(OCCO3)C2(C)C)cc(OC)c1OC.O=[N+]([O-])c1cc([N+](=O)[O-])c(O)c([N+](=O)[O-])c1 (stereo not given) | inactive |  |
| CCCOc1ccc(NP(C)(=O)Oc2ccc(Cl)cc2)cc1 (stereo not given) | inactive |  |
| Nc1cccc([As](=O)(O)c2ccccc2)c1 | inactive |  |

| SMILES | outcome | B-score |
| --- | --- | --- |
| CP(=O)(Nc1ccc(SC(F)(F)F)cc1)Oc1ccccc1 (stereo not given) | inactive |  |
| Cc1ccc(OCC(=O)OC2CN3CCC2CC3)cc1 (stereo not given) | inactive |  |
| O=[As](O)(c1cccs1)c1cccs1 | inactive |  |
| O=P1(Nc2ccc(Br)cn2)COc2ccccc2OC1 | inactive |  |
| COc1ccccc1OP(C)(=O)Nc1c(C)cccc1C (stereo not given) | inactive |  |
| CN1CCCCC1COC(=O)C1(O)c2ccccc2CCc2ccccc21 (stereo not given) | inactive |  |
| O=P1(Nc2ncccn2)COc2ccccc2OC1 | inactive |  |
| Nc1ccccc1[As](=O)(O)c1ccccc1 | inactive |  |
| O=C(O)COc1ccc([As](=O)(O)O)cc1[N+](=O)[O-] | inactive |  |
| O=P(Nc1nccs1)(Oc1ccccc1)Oc1ccccc1 | inactive |  |
| O=P(Nc1nccs1)(c1ccccc1)c1nc2ccccc2s1 (stereo not given) | inactive |  |
| CCOP1(=S)c2c(C)nn(CCC#N)c2N=C(c2ccccc2F)N1C (stereo not given) | inactive |  |
| O=C(O)c1cccc(Nc2c([N+](=O)[O-])cc([N+](=O)[O-])cc2[N+](=O)[O-])c1 | inactive |  |
| CS(=O)(=O)c1cc([N+](=O)[O-])c2no[n+]([O-])c2c1 | inactive |  |
| CCOP1(=S)c2c(C)nn(CCC#N)c2N=C(c2ccc(F)cc2)N1C (stereo not given) | inactive |  |
| CN(C(=O)Cc1ccccc1)[C@@H]1CC[C@]2(CCCO2)C[C@H]1N1CCCC1 | inactive |  |
| N#CCCN(C(=O)COC(=O)C(O)(c1ccccc1)c1ccccc1)c1ccc(F)cc1 | inactive |  |
| CC1=NCCc2c1[nH]c1ccccc21.O=[N+]([O-])c1cc([N+](=O)[O-])c(O)c([N+](=O)[O-])c1 | inactive |  |
| CN(C(=O)Cc1ccc(Cl)c(Cl)c1)[C@H]1CC[C@@]2(CCCO2)C[C@@H]1N1CCCC1 |  | active: 76 |
| O=[N+]([O-])c1ccc2c(c1)nnn2O | inactive |  |
| CN(C)C(=O)c1cc([N+](=O)[O-])cc2c1-c1c(cc([N+](=O)[O-])cc1[N+](=O)[O-])C2=O | inactive |  |
| NC(=O)Nc1ccc([As](=O)(O)O)cc1 | inactive |  |
| Cc1cc(C)cc(OP(C)(=O)Nc2ccc(C)cc2C)c1 (stereo not given) | inactive |  |

| SMILES | outcome | B-score |
| --- | --- | --- |
| Cc1cccc(OCC(=O)OC2CN3CCC2CC3)c1 (stereo not given) | inactive |  |
| O=[As](O)(c1cccc(O)c1)c1cccc(O)c1 | inactive |  |
| CCOC(=O)c1ccc(NP(C)(=O)Oc2cc(C)cc(C)c2)cc1 (stereo not given) | inactive |  |
| O=C(OC1CN2CCC1CC2)c1ccc(Cl)cc1 (stereo not given) | inactive |  |
| COc1ccccc1OP(C)(=O)Nc1cccc(Br)c1 (stereo not given) | inactive |  |
| CS(=O)(=O)c1ccc(Cl)c(NC(=O)COC(=O)C(O)(c2ccccc2)c2ccccc2)c1 | inactive |  |
| O=[As](O)(O)c1cccnc1 | inactive |  |
| COc1cc(C(=O)NCC2(N3CCOCC3)CCCCC2)cc(Cl)c1OC(C)C | inactive |  |
| CCOP(=O)(Nc1cccc2ccccc12)OCC | inactive |  |
| Cc1ccc(NCCc2c([N+](=O)[O-])cc([N+](=O)[O-])cc2[N+](=O)[O-])cc1 | inactive |  |
| Nc1cccc2c([As](=O)(O)O)cccc12 | inactive |  |
| Cc1cc(C)cc(OP(C)(=O)Nc2ccccn2)c1 (stereo not given) | inactive |  |
| CP(=O)(Nc1cccc(Br)c1)Oc1ccccc1 (stereo not given) | inactive |  |
| Cc1ccc(C)c(NP(C)(=O)Oc2ccccc2)c1 (stereo not given) | inactive |  |
| CCCOP(=S)(Nc1nc(N)cc(=O)[nH]1)OCCC | inactive |  |
| COc1cc(I)ccc1[As](=O)(O)O | inactive |  |
| COc1ccc2nc(NP(=O)(c3ccccc3)c3ccccc3)sc2c1 | inactive |  |
| Cc1c2c(nc3ccccc13)SC(C(Cl)Cl)C2 (stereo not given) | inactive |  |
| Cc1cc(=O)[nH]c(N[N+](=O)[O-])n1 | inactive |  |
| CCN(CC)CCCOC(=O)C(O)(c1ccccc1)c1ccccc1 | inactive |  |
| O=C(OC1CN2CCC1CC2)C12CC3CC(CC(C3)C1)C2 (stereo not given) | inactive |  |
| COc1ccc(N/C(=N/P(=O)(N2CCOCC2)N2CCOCC2)N2CCOCC2)cc1 | inactive |  |
| Cc1cccc(C)c1OP(C)(N)=O (stereo not given) | inactive |  |

| SMILES | outcome | B-score |
| --- | --- | --- |
| Cc1ccc(OP(=O)(Nc2ccc([N+](=O)[O-])cn2)Oc2ccc(C)cc2)cc1 | inactive |  |
| CC(C)(C)c1ccc(OP(C)(=O)Nc2ccc(SC(F)(F)F)cc2)cc1 (stereo not given) | inactive |  |
| O=[N+]([O-])c1ccc2c(c1)C=Nc1ccccc1O2 | inactive |  |
| Cc1ccc2nc3c(c(C)c2c1)CC(C(Cl)Cl)S3 (stereo not given) | inactive |  |
| O=[N+]([O-])c1cc([N+](=O)[O-])c(Nc2cccnc2)c([N+](=O)[O-])c1 | inactive |  |
| O=[As](O)(c1ccc(O)cc1)c1ccccc1O | inactive |  |
| C[As](=O)(O)c1cccc(C(=O)O)c1 | inactive |  |
| COc1ccc(OP(C)(=O)Nc2cccc(F)c2)cc1 (stereo not given) | inactive |  |
| O=[N+]([O-])c1cc([N+](=O)[O-])c(-c2ccn[nH]2)s1 | inactive |  |
| COc1ccccc1OP(C)(=O)Nc1cc(Cl)ccc1C (stereo not given) | inactive |  |
| CC(C)NC(=O)NP(=O)(Oc1ccccc1)Oc1ccccc1 | inactive |  |
| CCN(CC)C(=S)SC(NC=O)C(Cl)(Cl)Cl (stereo not given) | inactive |  |
| Cc1cc(C)cc(OP(C)(N)=O)c1 (stereo not given) | inactive |  |
| ClCCSc1nnc(-c2cccnc2)o1 | inactive |  |
| CCOC(=O)c1ccc(NP(C)(=O)Oc2ccccc2)cc1 (stereo not given) | inactive |  |
| Cc1ccc(NP(C)(=O)Oc2ccccc2)c(C)c1 (stereo not given) | inactive |  |
| CC(C)c1ccc(OP(=O)(Nc2ccccn2)Oc2ccccc2F)cc1 (stereo not given) | inactive |  |
| COc1ccccc1OP(C)(=O)Nc1ccc(C)cc1 (stereo not given) | inactive |  |
| Cc1cc(SC(NC(=O)c2ccccc2)C(Cl)(Cl)Cl)nc(C(C)C)n1 (stereo not given) | inactive |  |
| CCCCOc1ccc(C(=O)NCC2(N3CCCCC3)CCCCC2)cc1OC | inactive |  |
| CCOC(=O)Nc1ccc([As](=O)(O)O)c(O)c1 | inactive |  |
| COc1ccccc1OP(C)(=O)Nc1ccccc1 (stereo not given) | inactive |  |
| O=P(Nc1ccccn1)(c1cccc2ccccc12)c1cccc2ccccc12 | inactive |  |

| SMILES | outcome | B-score |
| --- | --- | --- |
| Cc1cc(SC(NC=O)C(Cl)(Cl)Cl)ncn1 (stereo not given) | inactive |  |
| O=[N+]([O-])c1ccc(Nc2ccc(Oc3ccc([N+](=O)[O-])cc3[N+](=O)[O-])cc2)c([N+](=O)[O-])c1 | inactive |  |
| CP(=O)(Nc1ccccc1Br)Oc1ccccc1 (stereo not given) | inactive |  |
| CP(=S)(Nn1cnnc1)Oc1ccccc1 (stereo not given) | inactive |  |
| CCOC(=O)Nc1cccc([As](=O)(O)O)c1 | inactive |  |
| Cc1cc(C)cc(OP(C)(=O)Nc2ccc(SC(F)(F)F)cc2)c1 (stereo not given) | inactive |  |
| O=C(Nc1ccncc1[N+](=O)[O-])c1ccc([N+](=O)[O-])cc1[N+](=O)[O-] | inactive |  |
| O=C(COc1ccccc1)OC1CN2CCC1CC2 (stereo not given) | inactive |  |
| CP(=O)(NC(=O)Nc1ccccc1)Oc1ccccc1 (stereo not given) | inactive |  |
| CCc1ccc(OP(C)(=O)N2CCN(c3ccc([N+](=O)[O-])cc3)CC2)cc1 (stereo not given) | inactive |  |
| CP(=O)(Oc1ccccc1)OC(c1ccccc1)C(F)(F)F (stereo not given) | inactive |  |
| COP1(=S)c2c(C)nn(CCC#N)c2N=C(c2ccc(F)cc2)N1C (stereo not given) | inactive |  |
| Cc1cccc(C)c1OP(C)(=O)Nc1ccc(SC(F)(F)F)cc1 (stereo not given) | inactive |  |
| CP(=O)(Nc1ccc(SC(F)(F)F)cc1)Oc1ccc(Cl)cc1 (stereo not given) | inactive |  |
| CCC(C)N(CC(C)C)C(=S)SC(NC(C)=O)C(Cl)(Cl)Cl (stereo not given) | inactive |  |
| CP(=O)(Nc1ccccn1)Oc1ccc(Cl)cc1 (stereo not given) | inactive |  |
| CCOP(C)(=S)SCC(=O)NC(C)C(=O)O (stereo not given) | inactive |  |
| O=C(OC1CN2CCC1CC2)c1cccc([N+](=O)[O-])c1 (stereo not given) | inactive |  |
| CCOC(=O)c1ccc(NP(C)(=O)Oc2ccc(OC)cc2)cc1 (stereo not given) | inactive |  |
| CCOC(=O)c1ccc(NC(=O)C(C)(CCl)SC)cc1 (stereo not given) | inactive |  |
| O=[N+]([O-])c1cc([N+](=O)[O-])c(O)c([N+](=O)[O-])c1.c1ccc(Oc2ccncc2)cc1 | inactive |  |
| CCc1ccc(OP(C)(=O)Nc2cccnc2)cc1 (stereo not given) | inactive |  |
| CCc1nc2c(n1)c1c(non1O)c1c2no[n+]1[O-] | inactive |  |
